# Only a part is listed here, and it is no random draw. Calls of active or inactive are those of the source. The calls were made as follows: active = hit-call score of the fitted dose curve at least 0.9, where 1 is the maximum; inactive = score below 0.9.
# Sequences of proteins named here, by UniProt entry; tags and fusion partners are left off.
# UniProt Q16236, whole entry: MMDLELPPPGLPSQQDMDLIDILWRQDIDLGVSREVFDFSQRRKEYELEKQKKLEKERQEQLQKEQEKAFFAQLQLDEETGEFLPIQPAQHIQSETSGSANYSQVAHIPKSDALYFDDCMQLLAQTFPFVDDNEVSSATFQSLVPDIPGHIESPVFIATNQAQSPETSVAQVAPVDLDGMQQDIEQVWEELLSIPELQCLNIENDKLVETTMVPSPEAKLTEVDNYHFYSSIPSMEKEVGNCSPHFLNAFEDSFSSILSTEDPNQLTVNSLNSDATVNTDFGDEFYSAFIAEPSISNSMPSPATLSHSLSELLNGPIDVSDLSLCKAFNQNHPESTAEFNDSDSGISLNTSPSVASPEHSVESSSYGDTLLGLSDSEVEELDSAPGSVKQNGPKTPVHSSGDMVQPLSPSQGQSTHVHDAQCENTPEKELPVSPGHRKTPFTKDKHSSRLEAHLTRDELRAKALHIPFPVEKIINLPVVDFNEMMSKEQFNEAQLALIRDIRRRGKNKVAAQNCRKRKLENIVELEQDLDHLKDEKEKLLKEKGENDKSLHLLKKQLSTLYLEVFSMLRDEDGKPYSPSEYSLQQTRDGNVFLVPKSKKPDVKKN
# UniProt P40763, whole entry: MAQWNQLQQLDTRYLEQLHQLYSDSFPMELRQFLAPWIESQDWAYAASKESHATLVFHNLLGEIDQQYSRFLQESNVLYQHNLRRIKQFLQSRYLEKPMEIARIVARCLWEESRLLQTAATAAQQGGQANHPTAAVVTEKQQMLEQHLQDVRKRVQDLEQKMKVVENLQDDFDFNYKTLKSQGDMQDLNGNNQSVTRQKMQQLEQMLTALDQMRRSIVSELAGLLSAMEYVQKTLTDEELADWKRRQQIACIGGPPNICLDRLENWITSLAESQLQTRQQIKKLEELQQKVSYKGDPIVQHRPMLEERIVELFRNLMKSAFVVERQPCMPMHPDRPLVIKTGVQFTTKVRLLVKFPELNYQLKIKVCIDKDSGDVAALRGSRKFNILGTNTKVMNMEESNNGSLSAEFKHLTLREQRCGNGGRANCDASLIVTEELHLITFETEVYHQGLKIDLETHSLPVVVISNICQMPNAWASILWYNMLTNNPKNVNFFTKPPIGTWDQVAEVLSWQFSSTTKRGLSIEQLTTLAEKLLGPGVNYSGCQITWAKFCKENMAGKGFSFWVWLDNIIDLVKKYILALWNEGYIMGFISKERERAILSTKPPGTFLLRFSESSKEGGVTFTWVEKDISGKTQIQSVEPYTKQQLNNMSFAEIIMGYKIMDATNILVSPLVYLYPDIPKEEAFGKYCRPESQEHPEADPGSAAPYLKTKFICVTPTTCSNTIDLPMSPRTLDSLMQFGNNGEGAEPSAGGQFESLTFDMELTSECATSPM
# Read-out: Pyruvate Dehydrogenase Kinase 4 (PDK4), PDK4 (gene 5166)
# Test: LTEA_HepaRG_PDK4: Life Technologies and Expression Analysis (LTEA) Assay for Pyruvate Dehydrogenase Kinase 4 (PDK4) using HepaRG (AID 2283525)
# Settings: actives raise or lower the signal; mRNA level, 48 h
# Outline: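 Readout is qRT-PCR of PDK4 transcript, normalized to three housekeeping genes, with bidirectional fitting against 0.5% DMSO vehicle. Differentiated HepaRG cells were treated 48 h in serum-free induction medium, duplicate wells, eight-point half-log series topping at 100 uM.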
row,SMILES,outcome
1,Cc1ccc([N+](=O)[O-])cc1[N+](=O)[O-],inactive
2,Cc1cccc([N+](=O)[O-])c1[N+](=O)[O-],inactive
3,CC(C)OP(C)(=O)OC(C)C,inactive
4,Cc1c([N+](=O)[O-])cccc1[N+](=O)[O-],inactive
5,O=[N+]([O-])c1cccc([N+](=O)[O-])c1,inactive

# Read-out: NAD(P)H dehydrogenase [quinone] 1 (NQO1), NQO1 (gene 1728)
# Test: LTEA_HepaRG_NQO1: Life Technologies and Expression Analysis (LTEA) Assay for NAD(P)H dehydrogenase [quinone] 1 (NQO1) using HepaRG (AID 2283526)
# Settings: actives raise or lower the signal; mRNA level, 48 h
# Outline: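 NQO1 transcript induction or loss measured by TaqMan qRT-PCR, referenced to three housekeeping genes and fitted bidirectionally against 0.5% DMSO. HepaRG cultures exposed 48 h, duplicate, eight-point half-log series, top 100 uM.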
row,SMILES,outcome
1,Cc1ccc([N+](=O)[O-])cc1[N+](=O)[O-],inactive
2,Cc1cccc([N+](=O)[O-])c1[N+](=O)[O-],inactive
3,CC(C)OP(C)(=O)OC(C)C,inactive
4,Cc1c([N+](=O)[O-])cccc1[N+](=O)[O-],inactive
5,O=[N+]([O-])c1cccc([N+](=O)[O-])c1,inactive

# Read-out: Nuclear factor erythroid 2-related factor 2 (Homo sapiens) (UniProt Q16236)
# Test: LTEA_HepaRG_NFE2L2: Life Technologies and Expression Analysis (LTEA) Assay for Nuclear factor erythroid 2-related factor 2 (NFE2L2) Transcription Factor using HepaRG (AID 2283527);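 also: TaqMan qRT-PCR transcript level normalised to ACTB GAPDH and POLR2A housekeeping genes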
# Settings: actives raise or lower the signal; mRNA level, 48 h
# Outline: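 NFE2L2 transcript level was read by qRT-PCR (housekeeping ACTB/GAPDH/POLR2A normalisation) after 48 h chemical treatment of HepaRG in serum-free induction medium. Duplicate 8-point half-log curves, top 100 uM, 0.5% DMSO vehicle; up- or down-regulation fitted against vehicle.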
row,SMILES,outcome
1,Cc1ccc([N+](=O)[O-])cc1[N+](=O)[O-],inactive
2,Cc1cccc([N+](=O)[O-])c1[N+](=O)[O-],inactive
3,CC(C)OP(C)(=O)OC(C)C,inactive
4,Cc1c([N+](=O)[O-])cccc1[N+](=O)[O-],inactive
5,O=[N+]([O-])c1cccc([N+](=O)[O-])c1,inactive

# Read-out: succinate dehydrogenase complex iron sulfur subunit B (SDHB), SDHB (gene 6390)
# Test: LTEA_HepaRG_SDHB: Life Technologies and Expression Analysis (LTEA) Assay for succinate dehydrogenase complex iron sulfur subunit B (SDHB) using HepaRG (AID 2283528)
# Settings: actives raise or lower the signal; mRNA level, 48 h
# Experimental: (§1) LTEA_HepaRG is a cell based, multiplexed-readout assay that uses HepaRG, a human liver cell line, with measurements taken at 48 hours after chemical dosing on a 96-well plate.LTEA_HepaRG_SDHB is one of 102 assay component(s) measured in the LTEA HepaRG cell culture assay. It is a marker of Cell proliferation, survival, death.Data from the assay component LTEA_HepaRG_SDHB was analyzed into 1 endpoint. This assay endpoint, LTEA_HepaRG_SDHB, was analyzed with bidirectional fitting relative to DMSO as the negative control and baseline of activity. Using a type of inducible reporter, measures of mRNA induction for gain or loss-of-signal activity can be used to understand regulation of transcription factor activity. To generalize the intended target to other relatable targets, this assay endpoint is annotated to the oxidoreductase intended target family, where the subfamily is ubiquinone.
# (§2) A total of 1060 chemcials from the ToxCast library were tested in eight-point concentration-response experiments. Cell culture and cytotoxicity assays were conducted at Thermo Fisher Scientific's Custom Services facility (Madison, WI). A single lot of human HepaRG cells (Thermo Fisher Scientific, Frederick, MD) was used for the cell culture experiments. 96-well format collagen type I coated plates of human HepaRG cells were prepared using established methods. Briefly, cryopreserved HepaRG cells were thawed, plated at a density of approximately 100,000 cells/well in HepaRG Thaw, Plate, and General Purpose media (HPRG770, Thermo Fisher Scientific), and incubated for 48 hours. 0.5% DMSO was selected as vehicle control to balance the requisite need of DMSO in HepaRG cultures to maintain differentiation (for example, baseline metabolism, proportions of hepatocytes vs. cholangiocytes), while enabling further hepatic receptor pathway activation (for example, PXR and CAR) in response to chemical exposure. 48 hours after plating, the culture medium was replaced with HepaRG Serum-Free Incudtion Media. Cells were exposed to each test chemical in duplicate and maintained in CO2 incubators for another 48 hours. Chemical plates were thawed to room temperature and 200x concentrations of treatment groups were prepared. 8-point conentration-reponse curves were made with the highest exposure at 100 uM, followed by half-log dilutions, all in 0.5% DMSO. Each test plate contained variouse controls, induction positive controls (1mM phenobarbital), cytotoxicity positive controls ([…] aflatoxin B1), vehicle controls (0.5% DMSO), and total lysis controls (0.5% DMSO). Cell morphology images were taken using an Essen IncuCyte FLR automated microscope, with six 96-well plates imaged in about 24 minutes. Images were captured and exported and JPEG files. Spent culture media was transfered to black-well plates for the LDH assay, and remaining media was sorted at -80 C for later use. Cells were treated with RLT buffer and frozen until shipped for gene expression analysis. Total RNA was isolated from the cell suspension in 75 uL of Buffer RLT (Qiagen, Germantown, MD 20874) by Quintiles/Expression Analysis (Durham, NC) using a custom isolation procedure. Total RNA from each plate well was transferred to a preamplification plate. Fluidigm's 96.96 Dynamic ArrayTM (Fluidigm, Amsterdam, the Netherlands) technology was used for gene expression analyses by quantitative reverse transcription polymerase chain reaction (qRT-PCR, performed by Quintiles/Expression Analysis, Durham, NC)89. […]
row,SMILES,outcome
1,Cc1ccc([N+](=O)[O-])cc1[N+](=O)[O-],inactive
2,Cc1cccc([N+](=O)[O-])c1[N+](=O)[O-],inactive
3,CC(C)OP(C)(=O)OC(C)C,inactive
4,Cc1c([N+](=O)[O-])cccc1[N+](=O)[O-],inactive
5,O=[N+]([O-])c1cccc([N+](=O)[O-])c1,inactive

# Read-out: Signal transducer and activator of transcription 3 (Homo sapiens) (UniProt P40763)
# Test: LTEA_HepaRG_STAT3: Life Technologies and Expression Analysis (LTEA) Assay for Signal transducer and activator of transcription (STAT3) using HepaRG (AID 2283529)
# Settings: actives raise or lower the signal; mRNA level, 48 h
# Outline: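 STAT3 transcript quantified by qRT-PCR against three housekeeping genes (ACTB, GAPDH, POLR2A), fitted both directions relative to DMSO. HepaRG cultures exposed 48 h to eight half-log concentrations, top 100 uM, 0.5% DMSO, serum-free induction medium.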
row,SMILES,outcome
1,Cc1ccc([N+](=O)[O-])cc1[N+](=O)[O-],inactive
2,Cc1cccc([N+](=O)[O-])c1[N+](=O)[O-],inactive
3,CC(C)OP(C)(=O)OC(C)C,inactive
4,Cc1c([N+](=O)[O-])cccc1[N+](=O)[O-],inactive
5,O=[N+]([O-])c1cccc([N+](=O)[O-])c1,inactive

# Read-out: solute carrier (SLCO1B1), SLCO1B1 (gene 10599)
# Test: LTEA_HepaRG_SLCO1B1: Life Technologies and Expression Analysis (LTEA) Assay for solute carrier (SLCO1B1) using HepaRG (AID 2283530)
# Settings: actives raise or lower the signal; mRNA level, 48 h
# Experimental: as §1, with “plate.LTEA_HepaRG_SLCO1B1” for “plate.LTEA_HepaRG_SDHB”, “NR mediated transport.Data” for “Cell proliferation, survival, death.Data”, “LTEA_HepaRG_SLCO1B1” for “LTEA_HepaRG_SDHB”, “LTEA_HepaRG_SLCO1B1,” for “LTEA_HepaRG_SDHB,”, “transporter” for “oxidoreductase”, “organic anion transporter.” for “ubiquinone.”
# as §2
row,SMILES,outcome
1,Cc1ccc([N+](=O)[O-])cc1[N+](=O)[O-],inactive
2,Cc1cccc([N+](=O)[O-])c1[N+](=O)[O-],inactive
3,CC(C)OP(C)(=O)OC(C)C,inactive
4,Cc1c([N+](=O)[O-])cccc1[N+](=O)[O-],inactive
5,O=[N+]([O-])c1cccc([N+](=O)[O-])c1,inactive

# Read-out: sulfotransferase 2A1 (SULT2A1), SULT2A1 (gene 6822)
# Test: LTEA_HepaRG_SULT2A1: Life Technologies and Expression Analysis (LTEA) Assay for sulfotransferase 2A1 (SULT2A1) using HepaRG (AID 2283531)
# Settings: actives raise or lower the signal; mRNA level, 48 h
# Outline: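 Differentiated human HepaRG cells in serum-free induction medium were exposed for 48 h to eight half-log concentrations (top 100 uM, 0.5% DMSO). SULT2A1 mRNA was measured by qRT-PCR, normalized to ACTB, GAPDH and POLR2A, and fitted bidirectionally against DMSO.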
row,SMILES,outcome
1,Cc1ccc([N+](=O)[O-])cc1[N+](=O)[O-],inactive
2,Cc1cccc([N+](=O)[O-])c1[N+](=O)[O-],inactive
3,CC(C)OP(C)(=O)OC(C)C,inactive
4,Cc1c([N+](=O)[O-])cccc1[N+](=O)[O-],inactive
5,O=[N+]([O-])c1cccc([N+](=O)[O-])c1,inactive

# Read-out: Transforming Growth Factor (TGFA), TGFA (gene 7039)
# Test: LTEA_HepaRG_TGFA: Life Technologies and Expression Analysis (LTEA) Assay for Transforming Growth Factor (TGFA) using HepaRG (AID 2283532)
# Settings: actives raise or lower the signal; mRNA level, 48 h
# Outline: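 TGFA transcript quantified by qRT-PCR (Fluidigm arrays) against three housekeeping genes, after 48 hours chemical treatment of HepaRG cells. Top concentration 100 uM with half-log dilutions, 8 points, duplicates, 0.5% DMSO.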
row,SMILES,outcome
1,Cc1ccc([N+](=O)[O-])cc1[N+](=O)[O-],inactive
2,Cc1cccc([N+](=O)[O-])c1[N+](=O)[O-],inactive
3,CC(C)OP(C)(=O)OC(C)C,inactive
4,Cc1c([N+](=O)[O-])cccc1[N+](=O)[O-],inactive
5,O=[N+]([O-])c1cccc([N+](=O)[O-])c1,inactive

# Read-out: Transforming Growth Factor (TGFB1), TGFB1 (gene 7040)
# Test: LTEA_HepaRG_TGFB1: Life Technologies and Expression Analysis (LTEA) Assay for Transforming Growth Factor (TGFB1) Transporter using HepaRG (AID 2283533)
# Settings: actives raise or lower the signal; mRNA level, 48 h
# Outline: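 Differentiated human HepaRG cells in serum-free induction medium were exposed in duplicate for 48 h to eight concentrations (top 100 uM, half-log steps, 0.5% DMSO). TGFB1 mRNA was quantified by qRT-PCR, normalized to ACTB, GAPDH, POLR2A, and fitted bidirectionally against DMSO.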
row,SMILES,outcome
1,Cc1ccc([N+](=O)[O-])cc1[N+](=O)[O-],inactive
2,Cc1cccc([N+](=O)[O-])c1[N+](=O)[O-],inactive
3,CC(C)OP(C)(=O)OC(C)C,inactive
4,Cc1c([N+](=O)[O-])cccc1[N+](=O)[O-],inactive
5,O=[N+]([O-])c1cccc([N+](=O)[O-])c1,inactive

# Read-out: TIMP1, TIMP1 (gene 7076)
# Test: LTEA_HepaRG_TIMP1: Life Technologies and Expression Analysis (LTEA) Assay for TIMP1 using HepaRG (AID 2283534);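 also: TaqMan qRT-PCR signal normalized to ACTB GAPDH and POLR2A housekeeping genes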
# Settings: actives raise or lower the signal; mRNA level, 48 h
# Outline: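 Differentiated human HepaRG cells in serum-free induction medium were exposed 48 h to chemicals (8 half-log concentrations, top 100 uM, 0.5% DMSO). TIMP1 mRNA was quantified by TaqMan qRT-PCR, normalized to ACTB/GAPDH/POLR2A; bidirectional fit versus DMSO.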
row,SMILES,outcome
1,Cc1ccc([N+](=O)[O-])cc1[N+](=O)[O-],inactive
2,Cc1cccc([N+](=O)[O-])c1[N+](=O)[O-],inactive
3,CC(C)OP(C)(=O)OC(C)C,inactive
4,Cc1c([N+](=O)[O-])cccc1[N+](=O)[O-],inactive
5,O=[N+]([O-])c1cccc([N+](=O)[O-])c1,inactive

# — PubChem BioAssay (EPA / NIEHS)
